This is a selection; strong and weak results do not stand in their true shares. Calls of active or inactive are those of the source. Rule as the data show it: active = inhibition above about 40%; inactive = the rest.
target: Coagulation factor XII (Homo sapiens) (UniProt P00748); assay: human FXIIa protease inhibitors, primary screen, biochemical, 1536-well (AID 800); settings: purified FXIIa, Boc-QGR-AMC fluorogenic substrate, 2 h; at 5 µM; hits give high values;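 also: 0% = enzyme with no compound and 100% = blank without enzyme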

Sequences of proteins named here, by UniProt entry; tags and fusion partners are left off. Residues count along the entry.
UniProt P00748, 20-372 limits assumed: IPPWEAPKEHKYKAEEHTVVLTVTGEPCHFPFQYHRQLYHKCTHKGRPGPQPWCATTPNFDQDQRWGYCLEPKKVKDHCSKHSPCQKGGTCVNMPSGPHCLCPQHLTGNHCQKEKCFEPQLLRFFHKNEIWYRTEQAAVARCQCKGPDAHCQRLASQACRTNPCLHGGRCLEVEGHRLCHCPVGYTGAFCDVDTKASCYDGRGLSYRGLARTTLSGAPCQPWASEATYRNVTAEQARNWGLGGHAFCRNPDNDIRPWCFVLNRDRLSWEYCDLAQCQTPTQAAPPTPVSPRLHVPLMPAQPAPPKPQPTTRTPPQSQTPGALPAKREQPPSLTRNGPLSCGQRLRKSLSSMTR
UniProt P00748, 373-615 limits assumed: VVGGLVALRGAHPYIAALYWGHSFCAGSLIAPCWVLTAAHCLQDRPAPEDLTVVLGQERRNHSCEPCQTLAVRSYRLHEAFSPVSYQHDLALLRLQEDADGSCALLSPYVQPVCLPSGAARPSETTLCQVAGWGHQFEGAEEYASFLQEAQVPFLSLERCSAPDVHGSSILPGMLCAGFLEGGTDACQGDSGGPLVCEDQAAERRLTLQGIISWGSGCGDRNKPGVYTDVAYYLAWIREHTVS

Structure (SMILES) | inhibition
O=C(NCC1(N2CCCCC2)CCCCC1)c1cccc([N+](=O)[O-])c1 | inactive: 5.49%
N#CC1(Nc2ccccc2)CCN(CCc2ccccc2)CC1 | inactive: 21.4%
COc1ccc(NC2CCN(C(=O)OC(C)(C)C)CC2)cc1 | inactive: 3.12%
CN1CCN(CCOC(=O)C(O)(c2ccccc2)c2ccccc2)CC1 | inactive: 12.6%
O=C(NCC1(N2CCOCC2)CCCCC1)c1cc(=O)[nH]c2ccccc12 | inactive: -0.33%
CN(C)c1cccc(C(=O)NCC2(N3CCCCC3)CCCCC2)c1 | inactive: 1.03%
COc1ccc(CN(CCCl)CCCl)cc1Cl | inactive: 4.46%
CC(C)c1ccc(NC2CCN(C(=O)OC(C)(C)C)CC2)cc1 | inactive: 2%
COc1ccc(C(=O)NCC2(N3CCCCC3)CCCCC2)c(OC)c1OC | inactive: -1.96%
CCOC(=O)N1CCC(Nc2ccc(OC)cc2)CC1 | inactive: 7.75%
N#CC1(Nc2ccccc2)CCN(Cc2ccccc2)CC1 | inactive: 6.71%
O=C(OC1CN2CCC1CC2)C1c2ccccc2Oc2ccccc21 (centres undefined) | inactive: -0.76%
O=C(NCC1(N2CCOCC2)CCCCC1)c1cc2ccccc2o1 | inactive: 23.4%
COc1ccc(NC2CCN(CCc3ccccc3)CC2)c(OC)c1 | inactive: 3.51%
CCOc1ccc(C)cc1CN(CCCl)CCCl | inactive: 3.02%
Cc1ccc(OCC(C)C)c(CN(CCCl)CCCl)c1 | inactive: 12.6%
Fc1ccccc1NC1CCN(Cc2ccccc2)CC1 | inactive: 16.7%
CN(C)c1ccc(C(=O)NCC2(N3CCCCC3)CCCCC2)cc1 | inactive: 7.56%
CCN1CCC(Nc2cccc(F)c2)CC1 | inactive: 6.93%
CC(C)(C)OC(=O)N1CCC(Nc2ccccc2)CC1 | inactive: 10.6%
CCOc1ncccc1C(=O)NCC1(N2CCOCC2)CCCCC1 | inactive: 9.18%
CCCOc1ccc(C)cc1CN(CCCl)CCCl | inactive: 1.54%
CCC(CO)(C(=O)OC1CN2CCC1CC2)c1ccccc1 (centres undefined) | inactive: 4.81%
COc1cc(OC)cc(C(=O)NCC2(N3CCOCC3)CCCCC2)c1 | inactive: -0.61%
COc1ccc(C(=O)NCC2(N3CCOCC3)CCCCC2)cc1OC | inactive: 7.23%
O=C(OC1CN2CCC1CC2)C1c2ccccc2C=Cc2ccccc21 (centres undefined) | inactive: 5.25%
N/C(=N\O)c1c(N)no[n+]1[O-] | inactive: 9.97%
N#Cc1ccc(C(=O)NCC2(N3CCCCC3)CCCCC2)cc1 | inactive: 5.26%
c1ccc(CN2CCC(Nc3ccccc3)CC2)cc1 | inactive: 6.08%
